Drawing on ChEMBL document CHEMBL3390842 (Medchemcomm, 2012), this text covers Activity for six compounds.

Amino acid sequences for entries named in this document (tags omitted). A change or cut given only in a name is not applied to a line headed by its entry.
UniProt Q9HC97: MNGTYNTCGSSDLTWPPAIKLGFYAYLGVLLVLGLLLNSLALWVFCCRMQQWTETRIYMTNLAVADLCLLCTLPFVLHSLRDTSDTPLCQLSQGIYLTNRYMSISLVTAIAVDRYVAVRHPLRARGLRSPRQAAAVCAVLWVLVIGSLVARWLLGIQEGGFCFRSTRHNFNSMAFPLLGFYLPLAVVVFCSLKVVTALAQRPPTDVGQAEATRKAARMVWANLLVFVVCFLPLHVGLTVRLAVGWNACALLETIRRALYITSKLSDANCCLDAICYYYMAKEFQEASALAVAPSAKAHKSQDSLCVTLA

Calls of active or inactive are those of the source. The rule behind the calls is not given here.

The target of test [1] is T1, G-protein coupled receptor 35 (Homo sapiens, UniProt Q9HC97). Description: Agonist activity at GPR35 in human HT-29 cells assessed as induction of whole cell dynamic mass redistribution at 100 uM after 50 mins by resonant waveguide grating biosensor analysis in presence of GPR35 antagonist ML-145.
In test [2] the target is T1, G-protein coupled receptor 35. The test can be described thus: Agonist activity at GPR35 in human U2OS cells assessed as induction of beta-arrestin translocation at 64 uM after 5 hrs by beta-lactamase reporter gene assay in presence of GPR35 antagonist ML-145.
For test [3] the target is unchanged. Description: Agonist activity at GPR35 in human HT-29 cells assessed as induction of whole cell dynamic mass redistribution at 50 uM after 50 mins by resonant waveguide grating biosensor analysis in presence of GPR35 antagonist ML-145.
Test [4] shares this target. The test can be described thus: Agonist activity at GPR35 in human HT-29 cells assessed as induction of whole cell dynamic mass redistribution at 50 nM after 50 mins by resonant waveguide grating biosensor analysis in presence of GPR35 antagonist ML-145.
Test [5] has the same target. Description: Agonist activity at GPR35 in human HT-29 cells assessed as induction of whole cell dynamic mass redistribution at 32 uM after 50 mins by resonant waveguide grating biosensor analysis in presence of GPR35 antagonist ML-145. Type of test: cell-based.
For test [6] the target is unchanged. The test can be described thus: Agonist activity at GPR35 in human U2OS cells assessed as induction of beta-arrestin translocation up to 1 mM after 5 hrs by beta-lactamase reporter gene assay.
Test [7] shares this target. The test can be described thus: Agonist activity at GPR35 in human HT-29 cells assessed as induction of whole cell dynamic mass redistribution at 200 uM after 50 mins by resonant waveguide grating biosensor analysis in presence of GPR35 antagonist ML-145.

Take `O=[N+]([O-])c1ccc([N+](=O)[O-])c(O)c1`: in test [1], the outcome was Active.
Regarding `CC(C)(c1cc([N+](=O)[O-])c(O)c([N+](=O)[O-])c1)c1cc([N+](=O)[O-])c(O)c([N+](=O)[O-])c1`, in test [2], the result was inactive.
`O=[N+]([O-])c1ccc(O)cc1[N+](=O)[O-]`: the outcome in test [3] was Active.
Regarding `O=[N+]([O-])c1cc(C(=C(Cl)Cl)c2cc([N+](=O)[O-])c(O)c([N+](=O)[O-])c2)cc([N+](=O)[O-])c1O`, the result in test [4] was inactive.
In the case of `Cc1cc([N+](=O)[O-])c(O)c([N+](=O)[O-])c1`, the outcome in test [5] and in test [2] was inactive.
Regarding `O=[N+]([O-])c1cccc(O)c1[N+](=O)[O-]`, in test [6], the result was inactive. Further, the result in test [7] was Active.
